{"sequences": {"note": "The chains behind the UniProt entries cited, without tags or fusion partners.", "UniProt O00255, whole entry": "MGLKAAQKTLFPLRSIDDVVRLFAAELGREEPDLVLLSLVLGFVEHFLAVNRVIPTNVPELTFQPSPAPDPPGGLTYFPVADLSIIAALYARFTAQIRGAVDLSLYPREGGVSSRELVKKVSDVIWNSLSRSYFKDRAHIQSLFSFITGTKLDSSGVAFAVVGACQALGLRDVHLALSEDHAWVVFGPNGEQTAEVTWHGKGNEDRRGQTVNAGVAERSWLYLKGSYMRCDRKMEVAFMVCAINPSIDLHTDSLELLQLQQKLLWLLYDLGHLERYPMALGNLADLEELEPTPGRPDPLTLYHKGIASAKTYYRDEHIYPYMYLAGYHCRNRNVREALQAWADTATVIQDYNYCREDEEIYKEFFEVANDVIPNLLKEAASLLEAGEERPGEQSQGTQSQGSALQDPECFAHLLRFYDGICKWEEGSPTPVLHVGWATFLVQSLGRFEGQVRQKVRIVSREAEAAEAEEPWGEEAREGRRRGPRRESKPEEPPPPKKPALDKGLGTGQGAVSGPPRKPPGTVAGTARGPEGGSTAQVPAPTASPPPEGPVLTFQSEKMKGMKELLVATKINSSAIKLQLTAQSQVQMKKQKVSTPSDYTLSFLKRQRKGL"}, "source": "patent US10899738B2", "about": "(THE REGENTS OF THE UNIVERSITY OF MICHIGAN, priority 2016, dated 2021)", "target": "menin protein (Homo sapiens (Human), UniProt O00255)", "details": "read-out: Menin Binding Affinity IC50", "description": "A fluorescence polarization (FP) competitive binding assay was used to determine the binding affinities of representative menin inhibitors. A FAM labeled fluorescent probe was designed and synthesized based on a MLL1 peptide (FAM-MM2). Equilibrium dissociation constant (Kd) value of FAM-MM2 to menin protein was determined from protein saturation experiments by monitoring the total fluorescence polarization of mixtures composed with the fluorescent probe at a fixed concentration and the protein with increasing concentrations up to full saturation. Serial dilutions of the protein were mixed with FAM-MM2 to a final volume of 200 μl in the assay buffer (PBS with 0.02% Bovine γ-Globulin and 4% DMSO. 0.01% Triton X-100 was added right before assays). Final FAM-MM2 concentration was 2 nM. Plates were incubated at room temperature for 30 minutes with gentle shaking to assure equilibrium.\nThe IC50, see Table 3, and Ki values of representative Compounds of the Disclosure were determined in a competitive binding experiment. Mixtures of 5 μl of the tested compounds in DMSO and 195 μl of preincubated protein/probe complex solution in the assay buffer were added into assay plates which were incubated at room temperature for 30 minutes with gentle shaking. […] FP values were measured as described above. IC50 values were determined by nonlinear regression fitting of the competition curves."}
{"smiles": "N#Cc1ccc(OCCCN2CCC(C3(C4CCCC4)NCCc4ccccc43)CC2)cc1", "note": "(stereo not shown) [compound 27, 4-(3-(4-(1-cyclopentyl-1,2,3,4-tetrahydroisoquinolin-1-yl)piperidin-1-yl)propoxy)benzonitrile]", "values": [{"measurement": "IC50", "result": 71, "unit": "nM"}]}
